# AlphaSeq binding of Ab-95 light chain variants to a spike HR2 peptide

Source: Engelhart et al. 2022 (doi:10.1038/s41597-022-01779-4), MIT Lincoln Laboratory and A-Alpha Bio; data file from the FLAb repository.

Binding partner: SARS-CoV-2 spike HR2 peptide, sequence PDVDLGDISGINAS.

Parent scFv Ab-95: VH joined to VL by a 15-residue (Gly4Ser)3 linker. Changes lie in the light chain CDRs alone.
VH: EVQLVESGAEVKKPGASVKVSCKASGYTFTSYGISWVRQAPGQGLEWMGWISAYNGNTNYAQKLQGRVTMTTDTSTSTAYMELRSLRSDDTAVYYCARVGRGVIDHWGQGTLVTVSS
VL: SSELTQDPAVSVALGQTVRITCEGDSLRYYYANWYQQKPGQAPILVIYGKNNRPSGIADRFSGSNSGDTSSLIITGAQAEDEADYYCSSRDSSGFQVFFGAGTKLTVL

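Phage display of a naive human antibody library on the peptide gave the parent. AAYL52 was designed without a model: most single CDR substitutions and a random sample of double and triple ones. The assay is AlphaSeq: two haploid yeast populations carry antibody and antigen on their surface. Pairs that bind mate more often; barcode pairs of the diploids are counted by sequencing. Each replicate has its own calibration line, from reference interactions of the BCL2 family. The assay was run in three technical replicates.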

Changes read parent residue, position, new residue, counted from the first residue of the VL shown. All variants listed here change E23 of the VL, counted from its first residue. The read-out is the apparent dissociation constant on a log10 scale (nM): the lower, the stronger. Replicates are averaged; those with no signal do not enter the mean. A pair that was not seen in that replicate is written "nd"; this usually means weak binding, but a binder can also be missed. For reference, the parent read 2.31 as the reference entry and 2.25 as a member of this library.

- E23M+Y29D+K50N -> 1.38, 1.35, 0.74 (mean 1.16)
- E23I+G49Y+S92Y -> 5.63, 3.93, nd (mean 4.78)
- E23V+S92V+V97T -> 2.96, 2.30, 2.79 (mean 2.68)
- E23S+Y30H+S93W -> 2.19, 2.46, 1.76 (mean 2.14)
- E23N+G49R+S88Y -> 4.44, 3.91, 4.44 (mean 4.27)
- E23P+D25F+V97T -> nd, nd, nd
- E23H+L27R+F98G -> 2.26, 2.17, 1.82 (mean 2.09)
- E23N+A32Q+S93G -> 5.48, nd, nd
- E23H+P54Y+S89R -> 3.43, nd, nd
- E23W+S26T+R53F -> nd, 5.24, nd
- E23F+S89F+V97I -> 2.82, 4.12, 2.96 (mean 3.30)
- E23I+R90A+G94F -> 2.75, 2.94, 2.51 (mean 2.73)
- E23D+A32Y+R90L -> nd, nd, nd
- E23Y+S55Q+S92E -> 2.62, 2.03, 2.36 (mean 2.34)
- E23C+R90C+F95Y -> 2.37, 1.78, 2.39 (mean 2.18)
- E23L+N33K -> nd, 5.94, 4.42 (mean 5.18)
- E23M+S89G+F98Y -> 2.23, 2.23, 1.96 (mean 2.14)
- E23L+N51W+S89A -> nd, nd, nd
- E23L+R28Q+Y31H -> 2.24, 2.26, 2.20 (mean 2.23)
- E23H+N51Y+G94V -> nd, 5.38, 3.51 (mean 4.45)
- E23M+N33H+P54Y -> 5.34, 4.50, nd (mean 4.92)
- E23N+L27N+N51T -> nd, 4.03, 3.28 (mean 3.66)
- E23H+Y29F+A32V -> 3.04, 2.86, 3.02 (mean 2.97)
- E23M+G24Q+V97T -> 3.70, nd, nd
- E23Y+A32Q+N51Q -> nd, 5.78, nd
- E23C+K50L -> 3.17, 3.48, 3.40 (mean 3.35)
- E23T+N52E+G94F -> 3.02, 2.16, 2.02 (mean 2.40)
- E23C+S26Q+Y29M -> 4.38, nd, nd
- E23D+N33P+S93G -> nd, 4.20, 4.89 (mean 4.54)
- E23M+Y29F+A32K -> 2.42, 2.05, 2.97 (mean 2.48)
- E23Y+Y30P+K50V -> 2.10, 2.10, 1.58 (mean 1.93)
- E23F+N33W+S89P -> 2.94, 3.20, nd (mean 3.07)
- E23F+G24Y+V97Q -> nd, nd, nd
- E23L+S93K -> 2.78, 4.70, 3.71 (mean 3.73)
- E23Q+Y30T+S93H -> 2.63, 3.33, 2.79 (mean 2.92)
- E23G+G24Y+V97P -> 4.31, nd, 3.68 (mean 4.00)
- E23H+N52D+S88L -> 2.83, 2.26, 2.68 (mean 2.59)
- E23A+A32K+N51K -> 5.72, nd, 4.13 (mean 4.93)
- E23T+G24H+S26V -> nd, 3.30, nd
- E23D+G94S+V97W -> 5.60, nd, 4.35 (mean 4.98)
- E23T+L27N+R53T -> 4.46, 4.03, 2.69 (mean 3.73)
- E23A+K50W+P54K -> 3.33, nd, nd
- E23I+N52C+S89A -> 2.77, 3.24, 2.70 (mean 2.90)
- E23H+L27T+K50M -> nd, nd, nd

From the list, the first 5 with no signal in any replicate:

{"changes": "E23P+D25F+V97T", "replicates, log10 nM": "nd, nd, nd", "mean, log10 nM": "nd"}
{"changes": "E23D+A32Y+R90L", "replicates, log10 nM": "nd, nd, nd", "mean, log10 nM": "nd"}
{"changes": "E23L+N51W+S89A", "replicates, log10 nM": "nd, nd, nd", "mean, log10 nM": "nd"}
{"changes": "E23F+G24Y+V97Q", "replicates, log10 nM": "nd, nd, nd", "mean, log10 nM": "nd"}
{"changes": "E23H+L27T+K50M", "replicates, log10 nM": "nd, nd, nd", "mean, log10 nM": "nd"}

Nonspecific signal, from three strains lacking the peptide, appeared in 28% of pairings of library AAYL52, centred on 3.91 (5% of these signals below 2.90); values are not corrected for it.